The results in this text go back to patent US11383008B2, “Surface-modified polymeric substrates grafted with a properties-imparting compound using clip chemistry” (Centre National de la Recherche Scientifique (CNRS), priority 2016, dated 2022).

In data set [1] the test system is back muscle tissue. The conditions noted are these: modified meshes vs unmodified meshes, rats, 1 month implantation; FIG. 10C.
The subject of data set [2] is L929 cells. As to conditions: PLA and PP grafted with Gadolinium complex; 48 h incubation; FIG. 10B.
For data set [3], the system named is L929 cells. The conditions noted are these: PLA and PP grafted with Gadolinium complex; 24 h, 48 h and 120 h; FIG. 10B.

As for “4-Azidoaniline Modified Gd-2-(4,7,10-triacetic acid)-1,4,7,10-tetraazacyclododecan-1-yl)pentanedioic Acid, (Gd-DOTA-N3) Complex”, in data set [1], the “intensity of the inflammatory response (lesion intensity i0-i4)” value is “less than or equivalent to those observed with unmodified” and the “spreading of the inflammatory response (lesion spreading d0-d2)” value is on record as “less than or equivalent to those observed with unmodified”. Also, the “cytotoxicity by direct contact (cell viability)” value in data set [2] was “non-toxic”. Further, the “cell proliferation on the grafted polymer” value in data set [3] is “non-toxic”.
